Data: patent US20110027909A1, “Chimera Compositions and Methods of Use” (priority 2009, published 2011)

The chains behind the UniProt entries cited, without tags or fusion partners. Where a name states a change or a piece, a line headed by the entry shows the natural chain unless it says otherwise. A line that says so, or that is headed by a name, gives the form on record, which may keep a tag or linker.
UniProt P25103, whole entry: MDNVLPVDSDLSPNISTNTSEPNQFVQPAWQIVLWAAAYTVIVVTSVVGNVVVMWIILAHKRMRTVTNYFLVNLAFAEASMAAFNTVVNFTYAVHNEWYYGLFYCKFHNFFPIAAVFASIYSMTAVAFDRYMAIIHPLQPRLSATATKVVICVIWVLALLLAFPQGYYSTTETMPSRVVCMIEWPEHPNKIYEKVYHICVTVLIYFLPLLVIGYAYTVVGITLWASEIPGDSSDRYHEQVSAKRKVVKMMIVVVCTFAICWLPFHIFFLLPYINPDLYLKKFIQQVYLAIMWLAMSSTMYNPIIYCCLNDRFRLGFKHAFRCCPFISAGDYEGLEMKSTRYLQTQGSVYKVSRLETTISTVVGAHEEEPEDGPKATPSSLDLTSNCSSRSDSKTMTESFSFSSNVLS
UniProt P24387: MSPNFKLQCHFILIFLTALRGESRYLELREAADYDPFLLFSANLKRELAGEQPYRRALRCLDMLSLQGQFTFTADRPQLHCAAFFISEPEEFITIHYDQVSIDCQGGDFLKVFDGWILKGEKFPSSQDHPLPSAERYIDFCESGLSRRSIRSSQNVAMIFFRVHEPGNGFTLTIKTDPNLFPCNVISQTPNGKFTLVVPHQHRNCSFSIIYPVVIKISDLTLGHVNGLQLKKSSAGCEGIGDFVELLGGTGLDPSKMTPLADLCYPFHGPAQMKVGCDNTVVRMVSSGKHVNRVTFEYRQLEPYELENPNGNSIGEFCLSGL
CRF-BP_NK1R chimera (Homo sapiens, UniProt P24387+P25103), UniProt P24387+P25103, fused, stated change not applied: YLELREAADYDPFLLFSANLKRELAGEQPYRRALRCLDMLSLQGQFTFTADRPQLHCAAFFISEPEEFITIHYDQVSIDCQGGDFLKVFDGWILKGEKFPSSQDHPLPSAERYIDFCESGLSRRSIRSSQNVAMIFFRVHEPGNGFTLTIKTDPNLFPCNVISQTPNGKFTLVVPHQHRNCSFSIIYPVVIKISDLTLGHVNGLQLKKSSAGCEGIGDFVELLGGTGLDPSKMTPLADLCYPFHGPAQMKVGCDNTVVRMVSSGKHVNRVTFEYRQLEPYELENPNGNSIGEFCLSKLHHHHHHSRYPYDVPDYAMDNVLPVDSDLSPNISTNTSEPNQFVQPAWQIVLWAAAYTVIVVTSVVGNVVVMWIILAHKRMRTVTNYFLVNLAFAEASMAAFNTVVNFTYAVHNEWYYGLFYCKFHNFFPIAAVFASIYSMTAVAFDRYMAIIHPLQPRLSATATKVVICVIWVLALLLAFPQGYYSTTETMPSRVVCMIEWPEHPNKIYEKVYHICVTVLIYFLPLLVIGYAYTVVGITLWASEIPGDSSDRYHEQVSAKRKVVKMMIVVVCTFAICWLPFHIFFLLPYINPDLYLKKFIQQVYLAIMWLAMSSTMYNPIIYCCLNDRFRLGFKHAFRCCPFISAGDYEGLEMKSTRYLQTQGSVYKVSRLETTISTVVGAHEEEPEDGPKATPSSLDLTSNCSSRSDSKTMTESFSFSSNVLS

Assays:
NK1R = NK1R (Homo sapiens, UniProt P25103); test: FLIPR intracellular calcium release, HEK-293 cells expressing full-length NK1-R; type: cell-based; settings: Substance P, FIG. 11
CRF-BP_NK1R chimera = molecular target: T1, CRF-BP_NK1R chimera (Homo sapiens, UniProt P24387+P25103); test: FLIPR intracellular calcium release, HEK-293 cells expressing CRF-BP_NK1R chimera; type: cell-based; settings: 1 pM-10 μM, FIGS. 9, 10
T1 construct: the construct used to create a CRF-BP(FL)_NK1R chimera; FLAG (N); expressed in transfected cells

Substance P
intracellular calcium release (RFU) (NK1R): intracellular calcium release achieved
intracellular calcium release (RFU) (CRF-BP_NK1R chimera): different levels of Substance P-induced (1 pM-10 μM) intracellular calcium release in the HEK-293 cells corresponding to the concentration of Substance P
